Experimental data: PubChem BioAssay AID1947 (The Scripps Research Institute Molecular Screening Center, 2009)
This is a selection; strong and weak results do not stand in their true shares. Some of these compounds have results that are not shown, active ones among them. The source made the active and inactive calls.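 How the source made its calls: active means inhibition above the screen mean inhibition plus 3 SD, computed separately per campaign (cut at about 18% in these data); inactive means the rest.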

Tested on: Fam108B (ABHD17B) serine hydrolase [Mus musculus]
Assay: mouse Fam108B serine hydrolase inhibitors, primary screen, counter-screen for RBBP9 inhibitor project, biochemical, fluorescence polarization (AID 1947);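 further: inhibitors lower polarization as less probe binds the enzyme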
Details: recombinant Fam108B, FP-Rh probe fluorescence polarization; at 9.51 µM; stronger effect = higher value

Compound | inhibition
O=C(NCC1(N2CCCCC2)CCCCC1)c1cc(F)c(F)cc1Cl | inactive: 1.97%
C=CCN1CCN(CCOC(=O)C(O)(c2ccccc2)c2ccccc2)CC1 | inactive: 0.67%
COc1ccc(C(=O)NCC2(N(C)C)CCCCC2)cc1 | inactive: -0.57%
O=C(NCC1(N2CCCCC2)CCCCC1)c1cccc(Br)c1 | inactive: -2.61%
CCN1CCCC(OC(=O)C2(O)c3ccccc3C=Cc3ccccc32)C1 (centres undefined) | inactive: 0.92%
Cc1cc(C(=O)NCC2(N3CCCCC3)CCCCC2)ccc1[N+](=O)[O-] | inactive: 5.13%
CN(C)c1ccc(C(=O)NCC2(N(C)C)CCCCC2)cc1 | inactive: 2.82%
CN(C)C1CCCC1OC(=O)C(O)(c1ccccc1)c1ccccc1 (centres undefined) | inactive: 0.27%
Cc1ccccc1C(=O)NCC1(N2CCCCC2)CCCCC1 | inactive: 1.27%
COc1cc(SC)ccc1C(=O)NCC1(N(C)C)CCCCC1 | inactive: 2.09%
CCN(CC)CC(C)C(C)OC(=O)C(O)(c1ccccc1)c1ccccc1 (centres undefined) | inactive: -1.52%
CC(C)N1C(=O)CC2(CCN(CCOC(=O)C(O)(c3ccccc3)c3ccccc3)CC2)C1=O | inactive: 4.24%
Cc1ccc(C(=O)NCC2(N3CCCCC3)CCCCC2)cc1 | inactive: -1.33%
O=C(NCC1(N2CCCCC2)CCCCC1)c1cc([N+](=O)[O-])ccc1Cl | inactive: 2.41%
CN1[C@@H]2CC[C@H]1CC(OC(=O)C(O)(c1ccccc1)c1ccccc1)C2 (some centres undefined) | inactive: 3.11%
COc1ccc(Br)c(C(=O)NCC2(N3CCCCC3)CCCCC2)c1 | inactive: 5%
CC(C)Oc1ccc(C(=O)NCC2(N(C)C)CCCCC2)cc1 | inactive: -0.78%
CN(C)c1cccc(C(=O)NCC2(N(C)C)CCCCC2)c1 | inactive: 8.16%
O=C(OC1CN2CCC1CC2)C(CO)(c1ccccc1)c1ccccc1 (centres undefined) | inactive: 1.57%
COc1ccc(Cl)cc1C(=O)NCC1(N(C)C)CCCCC1 | inactive: 4.56%
COc1cccc(C(=O)NCC2(N3CCCCC3)CCCCC2)c1 | inactive: 2.43%
O=C(NCC1(N2CCCCC2)CCCCC1)c1cccc(Cl)c1 | inactive: -3.73%
CN(C)C1(CNC(=O)c2ccc(Br)cc2)CCCCC1 | inactive: -2.83%
COc1cc(C(=O)NCC2(N(C)C)CCCCC2)c([N+](=O)[O-])cc1OC | inactive: -2.38%
